Measured values as given in patent US20090181972A1, “Novel Inhibitors of Cysteine Proteases, the Pharmaceutical Compositions Thereof and their Therapeutic Applications” (priority 2005, published 2009).

The chains behind the UniProt entries cited, without tags or fusion partners.
UniProt P15374, whole entry: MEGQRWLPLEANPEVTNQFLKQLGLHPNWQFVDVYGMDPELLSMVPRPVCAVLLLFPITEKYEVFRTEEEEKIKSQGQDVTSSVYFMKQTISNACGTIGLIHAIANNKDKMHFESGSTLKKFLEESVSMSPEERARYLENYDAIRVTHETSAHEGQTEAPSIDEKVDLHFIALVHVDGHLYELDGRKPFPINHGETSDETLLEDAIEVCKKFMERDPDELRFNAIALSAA
UniProt P40818, whole entry: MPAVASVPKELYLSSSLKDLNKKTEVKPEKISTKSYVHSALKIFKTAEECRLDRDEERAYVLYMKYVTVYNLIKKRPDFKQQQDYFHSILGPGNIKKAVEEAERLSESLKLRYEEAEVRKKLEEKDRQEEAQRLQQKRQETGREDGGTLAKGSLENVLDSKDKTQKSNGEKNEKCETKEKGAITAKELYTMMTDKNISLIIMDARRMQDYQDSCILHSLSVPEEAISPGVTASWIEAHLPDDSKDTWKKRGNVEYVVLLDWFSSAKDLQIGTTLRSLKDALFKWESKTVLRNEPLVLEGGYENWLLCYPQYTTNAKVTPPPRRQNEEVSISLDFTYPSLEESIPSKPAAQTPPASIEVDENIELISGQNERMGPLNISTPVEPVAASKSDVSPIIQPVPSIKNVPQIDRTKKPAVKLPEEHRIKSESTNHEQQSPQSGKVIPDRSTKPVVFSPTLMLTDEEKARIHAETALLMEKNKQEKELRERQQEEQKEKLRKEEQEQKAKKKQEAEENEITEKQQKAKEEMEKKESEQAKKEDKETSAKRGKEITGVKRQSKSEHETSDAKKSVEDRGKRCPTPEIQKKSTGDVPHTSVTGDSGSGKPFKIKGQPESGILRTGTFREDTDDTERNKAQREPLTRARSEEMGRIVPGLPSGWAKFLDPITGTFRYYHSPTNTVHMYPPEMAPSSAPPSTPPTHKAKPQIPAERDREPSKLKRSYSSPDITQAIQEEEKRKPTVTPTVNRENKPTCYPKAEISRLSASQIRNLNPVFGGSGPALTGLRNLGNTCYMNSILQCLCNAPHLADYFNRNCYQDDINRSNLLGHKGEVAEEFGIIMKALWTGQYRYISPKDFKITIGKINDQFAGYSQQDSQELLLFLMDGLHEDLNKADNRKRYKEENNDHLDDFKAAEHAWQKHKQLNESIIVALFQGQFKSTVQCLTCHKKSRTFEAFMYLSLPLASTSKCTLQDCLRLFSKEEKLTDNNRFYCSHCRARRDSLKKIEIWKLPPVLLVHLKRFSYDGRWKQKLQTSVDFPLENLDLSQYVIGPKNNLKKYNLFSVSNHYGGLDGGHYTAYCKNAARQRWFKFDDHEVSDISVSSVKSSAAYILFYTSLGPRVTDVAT
UniProt P45974, whole entry: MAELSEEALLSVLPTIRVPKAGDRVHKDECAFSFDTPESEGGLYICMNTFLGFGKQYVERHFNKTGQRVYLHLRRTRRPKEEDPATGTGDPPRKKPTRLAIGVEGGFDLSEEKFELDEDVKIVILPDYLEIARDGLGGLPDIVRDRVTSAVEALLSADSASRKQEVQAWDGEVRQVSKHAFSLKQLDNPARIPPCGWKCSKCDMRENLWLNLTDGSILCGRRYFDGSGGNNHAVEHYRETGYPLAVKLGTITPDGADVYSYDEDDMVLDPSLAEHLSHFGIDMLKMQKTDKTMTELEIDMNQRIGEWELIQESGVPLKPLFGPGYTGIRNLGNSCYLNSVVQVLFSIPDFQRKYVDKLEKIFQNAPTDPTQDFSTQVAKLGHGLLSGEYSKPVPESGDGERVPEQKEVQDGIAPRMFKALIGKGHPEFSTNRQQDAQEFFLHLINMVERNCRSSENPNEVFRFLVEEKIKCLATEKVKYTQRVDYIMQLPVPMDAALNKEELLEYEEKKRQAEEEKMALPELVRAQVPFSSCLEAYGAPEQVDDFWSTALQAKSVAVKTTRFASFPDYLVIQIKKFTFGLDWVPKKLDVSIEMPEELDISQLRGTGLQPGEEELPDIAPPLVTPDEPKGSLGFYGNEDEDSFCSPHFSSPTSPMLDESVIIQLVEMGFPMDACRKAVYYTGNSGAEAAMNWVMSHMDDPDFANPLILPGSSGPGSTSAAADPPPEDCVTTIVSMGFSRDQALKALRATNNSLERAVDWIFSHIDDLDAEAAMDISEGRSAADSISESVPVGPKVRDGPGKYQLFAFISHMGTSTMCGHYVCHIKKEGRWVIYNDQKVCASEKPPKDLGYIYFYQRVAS
UniProt Q93009, whole entry: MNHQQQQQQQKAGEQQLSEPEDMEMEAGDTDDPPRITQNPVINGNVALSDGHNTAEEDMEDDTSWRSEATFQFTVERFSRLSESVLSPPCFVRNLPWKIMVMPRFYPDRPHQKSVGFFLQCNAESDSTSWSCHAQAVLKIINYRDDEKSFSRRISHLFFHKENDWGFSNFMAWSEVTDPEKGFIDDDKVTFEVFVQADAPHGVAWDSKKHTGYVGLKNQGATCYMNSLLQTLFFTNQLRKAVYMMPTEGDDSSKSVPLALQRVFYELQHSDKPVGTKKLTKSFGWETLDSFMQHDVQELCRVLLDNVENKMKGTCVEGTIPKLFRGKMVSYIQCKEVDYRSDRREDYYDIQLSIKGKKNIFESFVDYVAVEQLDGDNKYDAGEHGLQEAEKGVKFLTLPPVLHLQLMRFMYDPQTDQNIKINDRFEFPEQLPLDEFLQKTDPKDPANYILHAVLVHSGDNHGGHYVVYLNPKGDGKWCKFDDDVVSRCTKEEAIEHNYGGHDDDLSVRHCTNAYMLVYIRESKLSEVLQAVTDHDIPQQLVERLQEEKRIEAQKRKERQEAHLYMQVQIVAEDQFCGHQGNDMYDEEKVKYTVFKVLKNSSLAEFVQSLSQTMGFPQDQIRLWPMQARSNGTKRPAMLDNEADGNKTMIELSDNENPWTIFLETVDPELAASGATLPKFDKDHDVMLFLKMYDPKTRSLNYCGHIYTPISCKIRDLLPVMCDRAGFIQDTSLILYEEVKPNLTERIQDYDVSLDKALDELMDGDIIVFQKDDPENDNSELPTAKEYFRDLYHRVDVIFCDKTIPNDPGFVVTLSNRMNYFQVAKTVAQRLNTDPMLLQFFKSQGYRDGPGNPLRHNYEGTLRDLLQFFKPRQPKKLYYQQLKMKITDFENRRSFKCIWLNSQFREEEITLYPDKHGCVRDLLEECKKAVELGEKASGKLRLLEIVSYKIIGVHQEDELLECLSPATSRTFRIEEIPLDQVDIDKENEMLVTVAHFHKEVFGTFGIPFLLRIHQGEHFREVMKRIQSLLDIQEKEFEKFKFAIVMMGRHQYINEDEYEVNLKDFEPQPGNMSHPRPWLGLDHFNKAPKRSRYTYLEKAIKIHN

How the values were obtained:
Uch-L3 = Uch-L3 (Homo sapiens, UniProt P15374); assay: UCH-L3 activity assay; conditions: read-out: Uch-L3; 400 nM Ub-AMC, 13 pM enzyme; pre-incubated 30 minutes at 25° C., 60 minutes at 37° C.; sigmoidal fit
Method: Uch-L3 was diluted in USP buffer (50 mM Tris HCl; 0.5 mM EDTA; 5 mM DTT; 0.01% Triton X-100; Bovine Serum Albumin 0.05 mg.ml^−1 pH 7.6). Compounds stocks (100 mM) were stored at −20° C. in DMSO. Compounds were tested at the following final concentrations: 100 μM; 33.3 μM; 11.1 μM; 3.7 μM; 1.23 μM; 412 nM; 137 nM; 45.7 nM; 15.2 nM; 5 nM.
Reactions were performed as duplicates in Black LJL 96 well plates (HE microplates; Molecular Devices; 20 μl final reaction volume). The substrate concentration for Uch-L3 was 400 nM Ub-AMC (Boston Biochem). The concentration of the enzyme (Uch-L3) in specificity assays was 13 pM. The concentrations were determined in order to perform specificity assays under initial velocities at fixed substrate concentration. Compounds were pre-incubated with enzymes for 30 minutes at 25° C. Reactions were initiated by addition of substrate to the plates containing the enzymes (+/− compounds) diluted in assay buffer. Reactions were incubated for 60 minutes at 37° C. Reactions were stopped by adding acetic acid (100 mM final). Readings were performed on a Pherastar Fluorescent Reader (BMG). δ Emission 380 nm; δ Excitation=460 nm. Data (mean values +/− standard deviation) were analyzed as % of control (no compound) and plotted as percentage versus the Log of the compound concentration using GraphPad (Prism). Data were fitted to a sigmoidal model (variable slope).

[1] = system: PC-3 prostate cancer cells; assay: PC3 cell viability and proliferation assay (MTS); conditions: read-out: PC3 GI50 D3, 72 hours incubation, mean of three independent experiments
Method: PC-3 prostate cancer cells were obtained from ATCC, and maintained in F-12K medium containing 7% FBS and 1% penicillin/streptomycin. Cells were incubated at 37° C. in a humidified atmosphere containing 5% CO2.
(§1) Cell viability was assayed using the MTS technique in 96-well culture plates (CellTiter 96® Aqueous Non-Radioactive Cell Proliferation Assay, Promega) according to the manufacturer's instructions. MTS (3-(4,5-dimethyl-thiazol-2-yl)-5-(3-carboxymethoxyphenyl)-2-(4-sulfophenyl)-2H-tetrazolium) is a MTT-derived tetrazolium that is reduced in metabolically active cells into a soluble, cell-permeant formazan. The amount of formazan, detected by its absorbance at 492 nm is proportional to the number of living, metabolically active cells.
2×10^3 PC3 cells were seeded per well. 24 hours later, the medium was changed and the cells treated in triplicate with the following concentrations of each compound: 10 μM-3.33 μM-1.11 μM-370 nM-123 nM-41 nM-14 nM and 5 nM. […]
(§2) Cells were incubated with the compounds for 72 hours, and their viability then assayed by the addition of MTS for 2 hours. Absorbance at 492 nm was measured directly from the 96-well culture plates. GI50 (Growth Inhibition 50) concentrations for each compound were calculated using a sigmoidal variable slope fit (Prism 4.0, Graphpad Softwares). […]

[2] = system: HCT116 colon cancer cells; assay: HCT116 cell viability and proliferation assay (MTS); conditions: read-out: HCT116 GI50 D3, 72 hours incubation, mean of three independent experiments
Method: HCT116 colon cancer cells were obtained from ATCC (American Type Culture Collection), and maintained in Mc Coy's 5A medium containing 10% FBS, 3 mM glutamine and 1% penicillin/streptomycin. Cells were incubated at 37° C. in a humidified atmosphere containing 5% CO2.
as §1, with “(3-(4,5-dimethyl-thiazol-2-yl)-5-(3-carboxymethoxyphenyl)-2-(4-sulfophenyl)-2H-tetra-zolium)” for “(3-(4,5-dimethyl-thiazol-2-yl)-5-(3-carboxymethoxyphenyl)-2-(4-sulfophenyl)-2H-tetrazolium)”
10^3 HCT116 cells were seeded per well. 24 hours later, the medium was changed and the cells treated in triplicate with the following concentrations of each compound: 10 μM-3.33 μM-1.11 μM-370 nM-123 nM-41 nM-14 nM and 5 nM. […]
as §2, with “G150” for “GI50”

USP8 = USP8 (Homo sapiens, UniProt P40818); assay: USP8 activity assay; conditions: read-out: USP 8; 400 nM Ub-AMC, 630 pM enzyme, pH8.8; pre-incubated 30 minutes at 25° C., 60 minutes at 37° C.; sigmoidal fit
USP5 = USP5 (Homo sapiens, UniProt P45974); assay: USP5 activity assay; conditions: read-out: USP 5; 400 nM Ub-AMC, 300 pM enzyme; pre-incubated 30 minutes at 25° C., 60 minutes at 37° C.; sigmoidal fit
Cathepsin B = Cathepsin B (Homo sapiens, UniProt P07858); assay: Cathepsin B activity assay; conditions: read-out: Cathepsin B; 36 μM z-RR-AMC, 3.6 nM enzyme; pre-incubated 30 minutes at 25° C., 60 minutes at 37° C.; sigmoidal fit
Method: Cathepsin B was diluted in Cathepsin B buffer (20 mM Tris HCl pH 6.8; 1 mM EDTA; 1 mM DTT). Compounds stocks (100 mM) were stored at −20° C. in DMSO. Compounds were tested at the following final concentrations: 100 μM; 33.3 μM; 11.1 μM; 3.7 μM; 1.23 μM; 412 nM; 137 nM; 45.7 nM; 15.2 nM; 5 nM. Reactions were performed as duplicates in Black LJL 96 well plates (HE microplates; Molecular Devices; 20 μl final reaction volume). The substrate concentration for cathepsin B specificity assay was 36 μM (z-RR-AMC; Calbiochem). The concentration of the enzyme (Cathepsin B) in specificity assays was 3.6 nM. The concentrations were determined in order to perform specificity assays under initial velocities at fixed substrate concentration. Compounds were pre-incubated with enzymes for 30 minutes at 25° C. Reactions were initiated by addition of substrate to the plates containing the enzymes (+/− compounds) diluted in assay buffer. Reactions were incubated for 60 minutes at 37° C. Reactions were stopped by adding acetic acid (100 mM final). Readings were performed on a Pherastar Fluorescent Reader (BMG). δ Emission 380 nm; δ Excitation=460 nm. Data (mean values +/− standard deviation) were analyzed as % of control (no compound) and plotted as percentage versus the Log of the compound concentration using GraphPad (Prism). Data were fitted to a sigmoidal model (variable slope).

USP7 = USP7 (Homo sapiens, UniProt Q93009); assay: USP7 activity assay; conditions: read-out: USP 7; 400 nM Ub-AMC, 152 pM enzyme; pre-incubated 30 minutes at 25° C., 60 minutes at 37° C.; sigmoidal fit
Text: The cDNA encoding USP7 was obtained by PCR amplification from placenta mRNA. USP7 cDNA was subcloned by PCR into a baculovirus expression vector (pFastBac-HT; Invitrogen). A cDNA encoding a mutated USP7 was generated by mutagenic PCR. The corresponding protein encodes a cysteine to alanine substitution at residue 223. The sequences were ascertained by sequencing of the entire open reading frame. Bacmids encoding USP7 were generated following DH10bac transposition. The corresponding bacmids were transfected into insect cells (Sf9). Viruses were recovered from culture supernatant and amplified twice. Insect cells (Sf9 or High Five; lnvitrogen) were infected for 72 hours. […] Proteins purifications were analyzed on 4-12% NuPAGE (Invitrogen). […]
Reactions were performed as duplicates in Black LJL 96 well plates (HE microplates; Molecular Devices; 20 μl final reaction volume). […] The concentrations were determined in order to perform specificity assays under initial velocities at fixed substrate concentration. […] Readings were performed on a Pherastar Fluorescent Reader (BMG). λ Emission 380 nm; λ Excitation=460 nm. Data (mean values +/− standard deviation) were analyzed as % of control (no compound) and plotted as percentage versus the Log of the compound concentration using GraphPad (Prism). […]

`O=C1c2ccccc2-c2nc3nnc(Cl)n3nc21` gave an IC50 (Uch-L3) of 133 nM, a GI50 [1] of 983 nM and a GI50 [2] of 581 nM. It also gave an IC50 (USP8) of 128 nM, an IC50 (USP5) of 549 nM and an IC50 (Cathepsin B) of 12000 nM. The IC50 (USP7) was 2600 nM.
